Test results as given in US5670479A, “α-ketoamide derivatives as inhibitors of thrombosis” (Corvas International, Inc., priority 1994, dated 1997).

Columns and labels:
washed human platelets = experiment: Thrombin-induced aggregation in washed human platelets; format: cell-based; settings: 20 nM (compound 8); same or higher concentrations (Hirulog-1), FIG. 4
Experimental: Washed human platelets were prepared from freshly isolated venous blood obtained from normal, healthy volunteers who had not taken any medication which might affect platelet function, according to the procedure of Connolly, T. M. et al., J. Biol. Chem., 267: 6893. (1992). Inhibitors, were added in a volume of […] to […] of prewarmed washed platelets in a siliconized glass cuvette (Chronolog Corp., Hayertown, Pa.) followed by […] of 0.25M CaCl2. The rate and extent of aggregation were measured for 5-15 minutes by the change in light transmission in a stirred cuvette, following the addition of […] of a-thrombin (final concentration 2 nM), using a Chronolog Whole Blood Aggregometer equipped with the Aggro/Link data acquisition system (Chronolog Corp., Hayertown, Pa.). […] The inhibitory effect of the test compounds was measured over a broad concentration range and is reported as the concentration required to inhibit aggregation by 50% (IC50).

baboons [1] = experiment: Baboon model of arterial thrombosis (Dacron vascular graft in AV shunt), systemic infusion
[2] = system: New Zealand white rabbits; experiment: Rabbit jugular vein thrombosis/fibrinolysis model; settings: 0.5mg/kg bolus + 0.5 μg/kg/min for 120 min, versus rHIR, FIG. 8
baboons [3] = experiment: Baboon hemostatic function (template bleeding time, coagulation tests)
rabbit = experiment: Rabbit study of venous thrombus growth; format: in vivo; settings: rabbit jugular vein, 120 min infusion, assessed at 180 min, FIG. 7
Experimental: To determine the duration of antithrombotic efficacy with Compound 8 following the termination of therapy, this inhibitor was compared to several other well-known antithrombotic agents in a rabbit model of venous thrombus growth described by Levi, M.et al., J. Thrombosis Haemostas., 66: 218-221 (1991). In this model, a thrombin-induced clot is formed in the jugular vein of an anesthetized rabbit. […] The infusion of test compound is continued for 120 minutes. Following this time, the extent of fibrin accretion is determined by comparing the amount of radiolabel incorporated into the clot versus circulating in the peripheral blood. At this time, the infusion of the test compound is stopped and the experiment continued for another 60 minutes. At 180 minutes, the extent of fibrin accretion is determined for the contralateral vessel. The data is expressed as "%Thrombus Growth" which is defined as (radioactivity in thrombus/radioactivity in blood)×100. In this protocol, TAP(recombinant tick anticoagulant protein, a selective inhibitor of factor Xa described by […]. et. al., J. Biol. […] Compound 8 was administered in two dosing regimens referred to as "Cmp8H" (1.0 mg/kg bolus +0.5 μg/kg/minute) and as "Cmp8M" (0.5mg/kg bolus +0.5μg/kg/minute). […]

clot-bound a-thrombin = clot-bound a-thrombin (Homo sapiens, UniProt P00734); experiment: Inhibition of clot-bound thrombin (FPA generation in citrated plasma); format: biochemical; settings: 60 min, 37° C., compound 8 18.75 nM, Hirulog-1 500 nM, rHIR 4 nM, FIG. 5B
Experimental: The relative inhibition of fluid-phase and clot-associated thrombin activity by compound 8 was compared to Hirulog-1 (compound 25) and rHIR, using the methodologies of Weitz, J. I. et.al. J. Clin. Invest., 86: 385-391 (1990).
Plasma clots were formed around wire hooks by the addition of CaCl2 (final concentration, 25 mM) to 500 μl aliquots of citrated plasma. After aging the clots for 60 minutes at 37° C. with constant agitation, the clots were washed 10 times with 2 ml aliquots of 0.1M NaCl buffered with 0.05M Tris-HCL, pH 7.4 over an 18 hour period. The washed clots were then incubated in 1 ml aliquots of citrated plasma for 60 minutes at 37° C. in the absence or presence of the various inhibitors. At timed intervals, 100 μl aliquots were removed and the reaction was terminated by the addition of the irreversible serine protease inhibitor, D-phenylalanyl-prolinyl-argininyl-CH2 Cl.
Unreacted fibrinogen was precipitated with ethanol, and the ethanol supernatants were then assayed for FPA.
In this figure, the control (no inhibitor) group (o) was compared to compound 8 at a final concentration of 18.75 nM (1), Hirulog-1 at a final concentration of 500nM (-) and rHIR at a final concentration of 4 nM(t). […]

a-thrombin [4] = target: T1, a-thrombin (Homo sapiens, UniProt P00734); experiment: Thrombin-induced clotting of purified fibrinogen; format: biochemical; settings: for inhibition of thrombin-catalyzed fibrin generation (relative clotting time): purified human fibrinogen, FIG. 2
Experimental: Compound 8 and Hirulog-1 (compound 25) were compared in an assay designed to measure the inhibition of thrombin using purified fibrinogen as the substrate using a modification of the method described by Witting, J. I. et al., Biochem. J. 283:737 (1992). Compound 8 or Hirulog-1 (compound 25) were pre-incubated with a-thrombin over a broad concentration range at 25° C. in 300 mL of Buffer A (150 mM NaCl, 30 mM CaCl2, 10 mM imidazole, 8.8 mg/mL polyethylene glycol (PEG 6000), pH 7.4) for 0, 30, and 60 minutes prior to the addition 100 mL of purified human fibrinogen (American Diagnostica, Greenwich, Conn.) which had been reconstituted in Buffer B (30 mM NaCl, 10 mM imidazole, pH 7.4) to a concentration of 8 ng/mL. The clotting time of fibrinogen following the addition of the thrombin/inhibitor complex was measured optically using the Coag-A-Mate XC automated coagulometer (General Diagnostics, Organon Technica, Oklahoma City, Okla.).
In this figure, Compound 8 (solid symbols) and Hirulog-1 (compound 25; open symbols) were preincubated with a-thrombin for 0 (m,1) 30 (Δ,s), and 60 (o,n) minutes prior to the addition of fibrinogen.
This inhibition is reflected as an increase in the relative clotting time which is the ratio of the […]. The control clotting time in this assay is 16.2±0.78 sec.

a-thrombin [5] = target: T1, a-thrombin; experiment: Inhibition of fluid-phase thrombin (FPA generation in citrated plasma); format: biochemical; settings: 60 min, 37° C., compound 8 18.75 nM, Hirulog-1 500 nM, rHIR 4 nM, FIG. 5A
Experimental: I. et.al. J. Clin. Invest., 86: 385-391 (1990). Human a-thrombin (2 U/ml) was incubated with citrated plasma for 60 minutes at 37° C. in the absence or presence of varying concentrations of each of the inhibitors. At timed intervals, 100 μl aliquots were removed and the reaction was terminated by the addition of […] (5 μM, final concentration). Unreacted fibrinogen was then precipitated with ethanol, and the ethanol supernatants were assayed for fibrinopeptide A (FPA). Thrombin addition to plasma results in rapid FPA generation which reaches a plateau in minutes as the thrombin is complexed and inactivated by fluid-phase antiproteases.(e.g. antithrombin III).

baboons [6] = experiment: Baboon: duration of antithrombotic effect after limited 3 hour infusion; settings: 3 hour infusion at 150 nmole/min/kg, followed to 24 hours
[7] = 37 nmol/kg/min group, Pre-dosing
[8] = 75 nmol/kg/min group, Pre-dosing
[9] = 150 nmol/kg/min group, Pre-dosing

inhibition of thrombin-catalyzed fibrin generation (relative clotting time) (a-thrombin [4]; listed as compound 8): significantly more potent than Hirulog-1
inhibition of fluid-phase a-thrombin-mediated FPA generation (a-thrombin [5]): stable inhibition of FPA generation
Structure (SMILES): CCCC(CCC)C(=O)N[C@@H](CC(=O)O)C(=O)N1CCC[C@H]1C(=O)N[C@@H](CCCNC(=N)N)C(=O)C(=O)NCC(=O)NCC(=O)NCC(=O)NCC(=O)NCC(=O)N[C@@H](CC(N)=O)C(=O)NCC(=O)N[C@@H](CC(=O)O)C(=O)N[C@@H](Cc1ccccc1)C(=O)N[C@@H](CCC(=O)O)C(=O)N[C@@H](CCC(=O)O)C(=O)N[C@H](C(=O)N1CCC[C@H]1C(=O)N[C@@H](CCC(=O)O)C(=O)N[C@@H](Cc1ccc(O)cc1)C(=O)N[C@@H](CC(C)C)C(=O)O)[C@@H](C)CC
persistence of inhibition of aggregation over the 15 minute assay (washed human platelets): stable with no recovery of aggregation
FPA (fibrinopeptide A) (baboons [1]; [7]): 3.0 ± 0.9 nM
PF-4 (platelet factor 4) (baboons [1]; [7]): 2.6 ng/mL
TAT (thrombin-antithrombin complexes) (baboons [1]; [7]): 5.9 ± 2.2 ng/mL
bTG (b-thromboglobulin) (baboons [1]; [7]): 2.1 ng/mL
FPA (fibrinopeptide A) (baboons [1]; 37 nmol/kg/min, 60 min): 1.45 ± 0.6 nM
PF-4 (platelet factor 4) (baboons [1]; 37 nmol/kg/min, 60 min): 1.5 ng/mL
TAT (thrombin-antithrombin complexes) (baboons [1]; 37 nmol/kg/min, 60 min): 2.6 ± 0.5 ng/mL
bTG (b-thromboglobulin) (baboons [1]; 37 nmol/kg/min, 60 min): 1.7 ng/mL
FPA (fibrinopeptide A) (baboons [1]; [8]): 3.3 ± 1.7 nM
PF-4 (platelet factor 4) (baboons [1]; [8]): 2.8 ng/mL
TAT (thrombin-antithrombin complexes) (baboons [1]; [8]): 6.5 ± 2.2 ng/mL
bTG (b-thromboglobulin) (baboons [1]; [8]): 2.6 ng/mL
FPA (fibrinopeptide A) (baboons [1]; 75 nmol/kg/min, 60 min): 0.75 ± 0.07 nM
PF-4 (platelet factor 4) (baboons [1]; 75 nmol/kg/min, 60 min): 1.9 ng/mL
TAT (thrombin-antithrombin complexes) (baboons [1]; 75 nmol/kg/min, 60 min): 2.2 ± 1.3 ng/mL
bTG (b-thromboglobulin) (baboons [1]; 75 nmol/kg/min, 60 min): 1.3 ng/mL
FPA (fibrinopeptide A) (baboons [1]; [9]): 1.7 nM
PF-4 (platelet factor 4) (baboons [1]; [9]): 1.3 ng/mL
TAT (thrombin-antithrombin complexes) (baboons [1]; [9]): 8.4 ± 4.2 ng/mL
bTG (b-thromboglobulin) (baboons [1]; [9]): 2.1 ng/mL
FPA (fibrinopeptide A) (baboons [1]; 150 nmol/kg/min, 60 min): 0.7 ± 0.4 nM
PF-4 (platelet factor 4) (baboons [1]; 150 nmol/kg/min, 60 min): 1.0 ng/mL
TAT (thrombin-antithrombin complexes) (baboons [1]; 150 nmol/kg/min, 60 min): 2.0 ± 0.8 ng/mL
bTG (b-thromboglobulin) (baboons [1]; 150 nmol/kg/min, 60 min): 0.5 ng/mL
Antithrombotic Effects ED50 (baboons [1]; dose which gives a 50% inhibition of platelet deposition): 35 nmol/kg/min
Platelet deposition (baboons [1]; i.v. infusion 37 nmol/kg/min, 60 min): 1.57 ± 0.03 × 10^9
Platelet deposition (baboons [1]; i.v. infusion 75 nmol/kg/min, 60 min): 1.17 ± 0.03 × 10^9
Platelet deposition (baboons [1]; i.v. infusion 150 nmol/kg/min, 60 min): 0.39 ± 0.14 × 10^9
extent of endogenous fibrinolysis of a preformed venous clot [2]: greater degree of endogenous fibrinolysis
Antihemostatic Effects APTT (baboons [3]; control 32 sec): > 300 s
APTT (baboons [3]; i.v. infusion 37 nmol/kg/min): > 300 s
APTT (baboons [3]; i.v. infusion 75 nmol/kg/min): > 300 s
APTT (baboons [3]; i.v. infusion 150 nmol/kg/min): > 300 s
% Thrombus Growth after termination of infusion (rabbit): clear reduction in thrombus size
inhibition of clot-bound a-thrombin-mediated FPA generation (clot-bound a-thrombin): stably inhibit clot-induced FPA generation
proteolytic inactivation by thrombin on preincubation (a-thrombin [4]; preincubation with a-thrombin 0, 30, 60 minutes before fibrinogen): not proteolytically inactivated by thrombin
inhibition of thrombin-catalyzed fibrin generation (relative clotting time) (a-thrombin [4]): dose-dependently inhibit the generation of fibrin
patency of graft segments (baboons [6]): remained patent with no reduction in blood flow
platelet deposition after limited infusion (baboons [6]; FIG. 10): inhibition of platelet deposition for the duration of the experiment
